## Antibody variant affinities, Ab-14 heavy chain, assay 1

All variants were tested on one target, the spike HR2 peptide PDVDLGDISGINAS (SARS-CoV-2).

The variants keep the light chain, the linker and the frameworks of Ab-14 (scFv order VH, the linker GGGGSGGGGSGGGGS, VL).
VH: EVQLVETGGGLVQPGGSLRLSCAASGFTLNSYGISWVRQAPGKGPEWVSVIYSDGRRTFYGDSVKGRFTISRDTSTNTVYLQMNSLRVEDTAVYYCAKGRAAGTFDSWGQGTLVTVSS
VL: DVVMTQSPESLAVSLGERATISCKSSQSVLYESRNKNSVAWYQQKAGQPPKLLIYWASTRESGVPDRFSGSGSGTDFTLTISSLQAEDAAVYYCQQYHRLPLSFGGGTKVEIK

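The parent was found by panning a naive human phage display library on the peptide. Variants in AAYL49 differ from the parent at up to three CDR positions; double and triple changes were sampled at random. AlphaSeq pools MATa yeast showing the antibodies with MATalpha yeast showing the peptide. Pairs that bind mate more often; barcode pairs of the diploids are counted by sequencing. Read counts were normalised to the haploid input and turned into Kd by a linear fit to BCL2-family pairs of known affinity, for each replicate. The assay was run in three technical replicates.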

Positions count from residue 1 of the parent VH; N30C puts C in place of N. Numbers give log10(Kd / nM), so 0 is 1 nM and 3 is 1 µM. Smaller is tighter. "nd" marks a missing value. The strain was present, yet no cells mated with the target were sequenced in that replicate, which points to weak or no binding. Three control strains display no target. For library AAYL49, 15% of the pairings with them gave a signal, with a median of 4.06 and one signal in twenty below 2.83, so weak values seen in few replicates may be background. Also given: how often the same scFv was detected with the empty control strains, with their mean in brackets.

| changes | log10 Kd (nM) by replicate | empty controls |
|---|---|---|
| N30C V50F F59T | nd 2.54 nd | 1/9 (2.51) |
| D54N G103A S107Y | nd nd 4.30 | 2/9 (3.48) |
| V50R F105Q | 5.35 4.24 nd | 0/9 |
| R56L T104H S107K | 4.99 nd nd | 3/9 (4.31) |
| F59Q S63T S107G | 2.51 2.21 3.23 | 2/9 (3.73) |
| T28E S31T I51Y | nd nd nd | 0/9 |
| S31N Y60L A102P | nd 2.87 nd | 1/9 (3.35) |
| D54R G55W | nd nd nd | 0/9 |
| D54I G55E | nd nd nd | 0/9 |
| L29S S63K D106A | nd 3.14 4.81 | 3/9 (4.47) |
| L29Y S63V V64Q | nd nd nd | 0/9 |
| I34W V50G R100I | 4.34 nd nd | 0/9 |
| R56P F59H K65R | nd nd nd | 1/9 (4.63) |
| S35H I51W Y52G | nd 4.24 nd | 1/9 (5.05) |
| G33Y S53M R100G | 4.35 nd 5.57 | 6/9 (3.79) |
| G61W D62F T104L | nd nd nd | 1/9 (3.77) |
| Y32M Y52E F105P | nd nd nd | 1/9 (4.60) |
| Y32P G55K R56Y | nd nd nd | 1/9 (4.19) |
| F27E D54K F59I | 5.34 nd nd | 2/9 (4.18) |
| G26K S63M F105V | 4.38 4.25 3.81 | 1/9 (5.67) |
| L29P | 1.92 nd nd | 0/9 |
| Y32G T58E G61Q | nd nd nd | 0/9 |
| Y32V Y60Q V64G | nd nd nd | 0/9 |
| F27S G99D T104K | 0.95 1.26 1.46 | 4/9 (3.07) |
| Y32N V64Q A101D | nd nd nd | 0/9 |
| S63Q K65S T104K | nd nd nd | 0/9 |
| S31Y D62Q D106T | 1.70 1.66 nd | 0/9 |
| V50P F59G S63M | 4.10 3.72 nd | 3/9 (3.71) |
| L29W V50D V64G | 3.29 nd nd | 0/9 |
| I34W S63L R100W | nd nd nd | 0/9 |
| I34Q G61A G99V | nd nd nd | 0/9 |
| S53C V64W K65N | nd nd nd | 0/9 |
| F27A N30F A102E | nd nd 2.93 | 0/9 |
| G26E Y32A T104P | nd nd nd | 0/9 |
| S53W G61E D62T | 1.25 nd 3.14 | 0/9 |
| T28I I51K G99A | nd nd nd | 1/9 (4.15) |
| T28Y S53W G61A | 3.29 3.69 nd | 0/9 |
| G61H A101L T104G | nd nd nd | 0/9 |
| G55N T58S F59Q | nd 2.91 nd | 1/9 (3.23) |
| S31F T58E A102W | nd 4.00 nd | 0/9 |
| I34L R57A A101P | 5.05 4.27 4.11 | 5/9 (4.67) |
| V64P T104C | nd 3.29 3.66 | 0/9 |

5 of these entries, quoted again:

| changes | log10 Kd (nM) by replicate | empty controls |
|---|---|---|
| V64P T104C | nd 3.29 3.66 | 0/9 |
| G33Y S53M R100G | 4.35 nd 5.57 | 6/9 (3.79) |
| T28I I51K G99A | nd nd nd | 1/9 (4.15) |
| G26E Y32A T104P | nd nd nd | 0/9 |
| S31N Y60L A102P | nd 2.87 nd | 1/9 (3.35) |

Values reported by Engelhart et al. 2022, doi:10.1038/s41597-022-01779-4 (FLAb copy).